The target in this test is human GHS-R1a receptor (growth hormone secretagogue receptor 1a) (human) (UniProt Q92847). Description: saturation radioligand binding, membranes with human GHS-R1a.

Chains of the proteins cited; added tags and fusions are not shown.
UniProt Q92847, whole entry: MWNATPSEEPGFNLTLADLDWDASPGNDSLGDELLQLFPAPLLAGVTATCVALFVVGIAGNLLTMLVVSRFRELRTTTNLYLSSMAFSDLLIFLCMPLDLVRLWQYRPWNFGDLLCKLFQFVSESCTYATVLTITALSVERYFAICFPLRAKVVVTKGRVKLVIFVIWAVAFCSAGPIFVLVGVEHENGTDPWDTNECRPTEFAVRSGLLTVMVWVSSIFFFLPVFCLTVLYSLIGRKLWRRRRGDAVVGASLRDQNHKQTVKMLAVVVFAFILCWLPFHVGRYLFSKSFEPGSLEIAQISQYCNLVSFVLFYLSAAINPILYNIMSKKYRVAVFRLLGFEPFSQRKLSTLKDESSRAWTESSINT

pKd: −log10 of the molar value.

On to ^125I-ghrelin (peptide), for which the pKd was 9.71.

Broadly, the pKd is the Kd on a negative log10 scale, so that one unit is a factor of ten. Higher therefore signals a small Kd.

Values taken from patent US20170044230A1 (USTAV ORGANICKE CHEMIE A BIOCHEMIE AV CR, V.V.I., priority 2014, published 2017).
